Data reported in patent US10526291B2, “Potent dual BRD4-kinase inhibitors as cancer therapeutics” (H. Lee Moffitt Cancer Center and Research Institute, Inc., priority 2014, dated 2020).

System: MM.1S cells
Experiment: MM.1S cell survival, MTT assay
Format: cell-based
Settings: Homo sapiens, MM1.S, 72 h, 72 hours compound exposure

## Cc1cnc(Nc2ccc(N3CCN(C)CC3)cc2)nc1Nc1cccc(S(=O)(=O)NC(C)(C)C)c1 [drawing 27]
  IC50: 1.58 nM
